Assay [1] in a line: In vitro selectivity ratio of Bovine Heart PDE1 to human platelet PDE5 was determined. A digest of the protocol:
(§1)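 Scintillation proximity PDE assay at room temperature, read by scintillation counting. Substrates: [³H]cGMP for PDE5 (sonicated human platelet homogenate) and PDE1 (bovine heart, with 1 µM calmodulin and 4 mM calcium). PDE2 (rat kidney cytosol, Mono-Q purified) used [³H]cAMP plus 1 µM nonradioactive cGMP. PDE6 was stripped from bovine rod outer segments and trypsin-activated. Blank subtracted; activity as percent of vehicle; ratio = IC50 other/IC50 PDE5.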

Assay [2] in a line: In vitro selectivity ratio of PDE2 of Rat kidney to human platelet PDE5 was determined. A digest of the protocol: as §1
Assay [3] can be described thus: In vitro selectivity ratio of PDE6 of Bovine retina to human platelet PDE5 was determined. In outline: as §1
Assay [4] has as its system cGMP-specific 3',5'-cyclic phosphodiesterase (Oryctolagus cuniculus). In words: Rabbit Corpus Cavernosum functional assay at 30 nM to determine the efficacy of PDE5 inhibition activity.

Bounds are passed on as bounds.

Consider `CCCOc1ccc(S(=O)(=O)N2CCN(CC)CC2)cc1-c1nc(O)c2cc3c(cc2n1)ncn3Cc1ccccc1OC`, for which the IC50 ratio in assay [1] is over 10000; in assay [2], over 10000; in assay [3] it was 90. In assay [4], this compound registered a Control relaxation of 140%.
Consider `CCCOc1ccc(S(=O)(=O)N2CCN(C)CC2)cc1-c1nc(O)c2cc3c(cc2n1)ncn3Cc1ccc(F)cc1`, for which the values for the IC50 ratio in assay [1], in assay [2] and in assay [3] were over 10000, over 10000 and 60, respectively. The compound further returned a Control relaxation in assay [4] of 90%.

Values taken from ChEMBL document CHEMBL1133451, “Optimization of substituted N-3-benzylimidazoquinazolinone sulfonamides as potent and selective PDE5 inhibitors” (J Med Chem, 2000).
